Biological target: CYP1A2 (Homo sapiens, UniProt P05177)
Test: TPB15 metabolism in human liver microsomes with CYP1A2 inhibitor
Type: in vitro ADME
Conditions: inhibition of TPB15 metabolism, HLM, 90 min, α-Naphthoflavone 10 μM (CYP1A2)
Protocol: The specific inhibitors of P450 were employed to evaluate the metabolic phenotype of TPB15, and the metabolic enzymes corresponding to each inhibitor and the system concentration are shown in Table 2. The specific procedure was as follows: a total of 0.5 μL of the substrate TPB15 and 0.5 μL of each specific inhibitor were mixed with 449 μL of human liver microsomes, and the mixture was incubated at 37 °C for 10 min. Subsequently, 50 μL of NADPH with a concentration of 10 mM in PBS were introduced to initiate the reaction. After 90 min, 50 μL of the reaction mixture were transferred to a 150 μL ice-cold methanol solution containing an internal standard to terminate the reaction. The mixture was vortexed for 2 min and then centrifuged at 4 °C at 14,800 rpm for 10 min. A volume of 130 μL of the supernatant was then transferred to a new EP tube, which was centrifuged again at 4 °C at 14,800 rpm for another 10 min. Finally, 5 μL of the supernatant were injected for the determination of substrate TPB15 concentration. Three parallel samples were prepared for each time point. The experiment also included a positive control group and a negative control group. In the positive control group, substrate TPB15 was incubated with human liver microsomes for 90 min without the addition of inhibitors.

Protein sequences, listed by entry. Tags and fused reporters are not part of them.
UniProt P05177, whole entry: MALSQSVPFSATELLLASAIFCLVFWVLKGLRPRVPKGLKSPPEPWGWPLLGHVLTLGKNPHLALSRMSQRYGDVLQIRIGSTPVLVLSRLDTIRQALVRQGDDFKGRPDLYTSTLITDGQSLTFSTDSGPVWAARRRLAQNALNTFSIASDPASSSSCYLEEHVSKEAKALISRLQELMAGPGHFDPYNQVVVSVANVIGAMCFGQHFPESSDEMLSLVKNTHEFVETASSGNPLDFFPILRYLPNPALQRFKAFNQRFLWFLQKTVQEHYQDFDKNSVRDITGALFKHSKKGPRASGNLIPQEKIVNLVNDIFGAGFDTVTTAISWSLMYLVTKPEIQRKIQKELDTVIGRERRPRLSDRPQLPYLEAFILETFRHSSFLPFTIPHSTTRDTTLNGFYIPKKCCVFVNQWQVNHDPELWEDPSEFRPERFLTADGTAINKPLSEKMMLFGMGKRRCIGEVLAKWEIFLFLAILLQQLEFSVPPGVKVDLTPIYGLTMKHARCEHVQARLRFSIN

O=c1cc(-c2ccccc2)oc2c1ccc1ccccc12 [α-Naphthoflavone]
Inhibitor Rate (%): 5.58%

Reference: article PMC12030497, “Plasma Protein Binding, Biostability, Metabolite Profiling, and CYP450 Phenotype of TPB15 Across Different Species: A Novel Smoothened Inhibitor for TNBC Therapy” (Pharmaceutics, 2025)
